Assay results as given in patent publication US20210252159A1, “CONJUGATES OF CARTILAGE-HOMING PEPTIDES” (priority 2018, published 2021).

Test: Rat CIA biodistribution study (QWBA)
Type: in vivo
Settings: CIA rats; for signal in cartilage (whole body autoradiography): 400 nmol IV, 1 hr, 3 hrs, 24 hrs
Procedure: 50 uCi, 400 nmol of each compound was given intravenously (IV) through the tail vein and allowed to circulate 1 hour, 3 hours, or 24 hours. Rats were euthanized by CO2 asphyxiation, shaved, and frozen in dry ice chilled hexane. QWBA was performed and quantified as described.
Frozen carcasses were allowed to off gas hexane overnight at −20° and then embedded in chilled 2% carboxymethylcellulose (Sigma Aldrich) and sectioned sagittally at a thickness of 40 μm on an H/I Bright 8250 Cryostat (Hacker Instruments). Radioactive control guides were drilled into each block to verify even cutting depth along the length of the section. The radioactive guide consisted of ^14C-Glycine (American Radiolabeled Chemicals, “ARC”) at 0.5 uCi/ml in 0.5% BSA (Sigma Aldrich) in PBS. Sections were collected onto 4-inch wide tape (Scotch 821, ULINE) at 2-4 depths to sample approximately 30 tissues with particular focus on the knees and spine. […]
Quantification of the radioactivity detected in WBA samples was evaluated by measuring the pixel density/mm^2 (“SI”: Signal Intensity/Area−background) using AIDA Image Analyzer v 5.1 Whole Body Autoradiography Professional software (Raytest). […] For quantification, all visible knee or IVD (intervertebral disc) tissues for one rodent across all collected sections were measured and averaged together to generate one knee or IVD value per animal. […] To collect quantified values for other tissues, ROIs were drawn around blood in the heart ventricle, spinotrapezius muscle, the liver, or the kidney (including cortex and medulla) in all sections in which the tissue was observed and then averaged to yield one value per tissue per animal.
Data were presented as nmol of compound per gram of tissue. The commercial standard strips co-exposed with each WBA sample set were calibrated so that a known amount of radioactive counts per minute (CPM) per gram of tissue, determined by liquid scintillation counting (LSC), corresponded to the measured WBA SI at 11 standard strip concentration data points. […]

In the case of “^14C-Cys-Dexamethasone [reference compound]”, the “accumulation in other tissues of the body” value (400 nmol IV, 1, 3, 24 hrs, except liver and kidney) is reported as “not detected at significant levels”, the “signal in cartilage (whole body autoradiography)” value is reported as “minimal signal” and the “signal in cartilage (whole body autoradiography)” value (listed as 14C-Cys Dex) is reported as “no visually detectable signal”.
